## Apparent affinities of Ab-14 variants for a coronavirus HR2 peptide

From the AlphaSeq antibody data of Li et al. 2023 (doi:10.1038/s41467-023-39022-2), copy in the FLAb collection.

All variants were tested on one target, the spike HR2 peptide PDVDLGDISGINAS (SARS-CoV-2).

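The parent was found by panning a naive human phage display library on the peptide. These sequences belong to a second round, designed from the earlier measurements on random variants of the parent. Their group label is 14H_En_Gibbs (En: ensemble of fine-tuned language models; Gibbs: Gibbs sampling). Affinity was read by AlphaSeq, a pooled yeast mating assay with surface-displayed partners. After mating in shaken culture at 30 °C for 16 h, diploids were selected and their barcode pairs sequenced. Read counts were normalised to the haploid input and turned into Kd by a linear fit to BCL2-family pairs of known affinity, for each replicate. The assay was run in six technical replicates.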

Parent scFv Ab-14: VH joined to VL by three GGGGS repeats. Changes lie in the heavy chain CDRs alone.
VH: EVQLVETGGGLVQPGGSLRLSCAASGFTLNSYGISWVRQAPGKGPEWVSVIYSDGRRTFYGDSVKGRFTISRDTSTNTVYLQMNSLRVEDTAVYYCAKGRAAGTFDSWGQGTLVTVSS
VL: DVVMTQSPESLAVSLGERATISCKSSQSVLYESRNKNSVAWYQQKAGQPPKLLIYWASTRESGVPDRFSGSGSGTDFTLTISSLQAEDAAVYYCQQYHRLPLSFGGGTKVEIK

The parent's heavy chain CDRs are GFTLNSYGIS, VIYSDGRRTFYGDSVK, GRAAGTFDS; each variant's own CDRs replace them letter for letter.
Affinities are written as log10 Kd with Kd in nM; a lower number is a better binder.
Where no diploid with the target was found in that replicate, the entry reads "nd": below detection, most likely a poor binder, though not proof of it.
Of ten entries with the parent sequence, four were seen in most replicates (averages 0.34 to 2.37), three in one and three in none, so single entries are noisy.
In the paper, a design with two or fewer of six values counts as a poor binder.
A sequence measured in both rounds can read differently, since the two assays cover different ranges.
Nonspecific signal, from three strains lacking the peptide, appeared in 1% of pairings of all heavy chain designs, centred on 2.08 (5% of these signals below 0.84); values are not corrected for it. The control count says in how many pairings with the empty strains this scFv gave a signal, with their mean in brackets.

| CDR-H1 | CDR-H2 | CDR-H3 | log10 Kd (nM) by replicate | signal with controls |
|---|---|---|---|---|
| GFNLEDYGIS | VIYADGIRMSYQEAVK | GQNSGVIVN | nd / nd / nd / nd / nd / nd | 0/18 |
| GFDLNEYGIS | VIYADGLRTKYSNAVK | GGLQAHFKL | nd / nd / nd / nd / 2.27 / nd | 0/18 |
| GFDLEEMGVS | VIYADGIRFAYAQKVK | GQAAGTFDL | 0.74 / 0.62 / 0.78 / 0.64 / 0.82 / 0.95 | 0/18 |
| GFSLDEYGIS | VIYADGVRKHYADSVK | GNIIGYYFA | nd / nd / nd / nd / nd / nd | 0/18 |
| GFGLDEYGIS | VIYADGRRTGYQDKFK | GANNFSVLM | nd / nd / nd / nd / nd / nd | 0/18 |
| GEDLQEYGIS | VIYADGLRTAYSDNFK | GHLGGQFDM | nd / nd / nd / nd / nd / 1.58 | 0/18 |
| GFSLNEYGIS | VIYADGLRSFYQDKVK | GELALSLDT | nd / nd / 1.76 / nd / nd / nd | 0/18 |
| GFDIEEFGIS | VIYADGKRSAYSNSVK | GLMAGTMGY | 1.51 / nd / 2.08 / 1.40 / 2.82 / 2.12 | 0/18 |
| GKHLDEYGIS | VIYADGQRVAYADTVK | GIQGVNVDV | nd / nd / nd / nd / nd / 1.93 | 0/18 |
| GFDINEYGIS | VIYADGRRVYYADDVK | GKNLELFSF | nd / nd / nd / nd / nd / nd | 0/18 |
| GFNLDEYGIS | VIYADGMRRAYVDEVK | GYFSDIQLM | nd / nd / nd / nd / nd / nd | 0/18 |
| GFDLSEYGIS | VIYADGRRFSYKDAVK | GQVEGMLDV | nd / 2.19 / nd / nd / nd / nd | 0/18 |
| GKNLDEYGVS | VIYADGKRTAYTNNFK | GGNAGFFKS | nd / nd / nd / nd / nd / nd | 0/18 |
| GFNLDEYGIS | VIYADGYRRAYAQSVK | GMNSGTGVT | nd / nd / nd / nd / nd / nd | 0/18 |
| GFDVMEYGIS | VIYADGMRQAYTNKVK | GGNTSSGLI | nd / nd / nd / nd / nd / nd | 0/18 |
| GFGLNEYGIS | VIYADGQRKYYADNVK | GVFGEDGQV | nd / nd / nd / nd / nd / nd | 0/18 |
| GFNFNEYGIS | VIYADGKRKAYSDSVK | GLSAGTMEV | nd / nd / nd / nd / nd / nd | 1/18 (1.61) |
| GMSLDEYGIS | VIYADGKRCAYANTVK | GELAGFFML | nd / nd / nd / nd / nd / nd | 0/18 |
| GFPIDEYGIS | VIYADGRRTVYSDNVK | GNYGASIKI | nd / nd / nd / nd / nd / nd | 0/18 |
| GFDLDQYGIS | VIYADGRRTQYADDVK | GKYAGSMLS | nd / nd / nd / nd / nd / nd | 0/18 |
| GFDIDEYGIS | VIYADGHRTQYSEQVK | GVNMGFLVE | nd / nd / nd / nd / nd / nd | 0/18 |
| GFDLDEYGIS | VIYADGCRVSYANNVK | GLLGKLVVV | nd / nd / nd / nd / nd / nd | 0/18 |
| GFWLDEYGIS | VIYADGMRTAYKNSVK | GQFTYNFDV | nd / nd / nd / nd / nd / nd | 0/18 |
| GFDLNEYGIS | VIYADGHRTKYQNSVK | GGQADFALL | nd / nd / nd / nd / nd / nd | 0/18 |
| GFNLNEVGIS | VIYADGLRSAYVDSVK | GGVVGVDFV | nd / nd / nd / nd / 1.48 / 1.70 | 0/18 |
| GEDLQEYGIS | VIYADGLRTAYADNFK | GHLGGQFDM | nd / nd / nd / 3.04 / nd / nd | 0/18 |
| GFSIDEYGIS | VIYADGVRQAYQDDVK | GQIGGTFNY | -0.32 / 0.18 / -0.42 / -0.39 / -0.27 / -0.28 | 1/18 (1.87) |
| GFQLNEYGIS | VIYADGKRSEYQDSVK | GGSNSSFSL | nd / nd / nd / nd / nd / nd | 0/18 |
| GQDLEEYGIS | VIYADGIRTVYDQSVK | GHKGTTFYV | nd / nd / nd / nd / nd / nd | 0/18 |
| GFDINEYGIS | VIYADGMRRAYSQSVK | GHGEDLSLD | nd / nd / 2.33 / nd / nd / 1.71 | 1/18 (0.99) |
| GADINEYGIS | VIYADGIRSAYAQSVK | GEHGSQFDI | nd / nd / nd / nd / nd / nd | 0/18 |
| GKSLDEYGIS | VIYADGQRTSYTNSVK | GLSNFVQIV | nd / nd / nd / nd / nd / nd | 0/18 |
| GFDLNEYGVS | VIYADGIRTSYTDSVK | GHVVDLLMA | 1.85 / nd / nd / nd / 2.58 / nd | 0/18 |
| GFNLEEYGIS | VIYADGMRSEYADNVK | GHKGNTFID | nd / nd / nd / nd / nd / nd | 0/18 |
| GFALNEYGIS | VIYADGSRSAYTESVK | GVHNGDVNI | nd / nd / nd / nd / nd / nd | 0/18 |
| GQGLDEYGIS | VIYADGMRTYYTPNVK | GQVLGVMNI | nd / nd / nd / nd / nd / nd | 0/18 |
| GFDLQEYGIS | VIYADGHRTAYIQKVK | GQIVGGQFD | nd / nd / nd / nd / nd / nd | 0/18 |
| GFNLDEQGIS | VIYADGMRTVYAKNVK | GQNVGFTVF | nd / nd / nd / nd / nd / nd | 0/18 |
| GFDINEYGIS | VIYADGQRVYYAEKVK | GFNQTINVV | nd / nd / nd / nd / nd / nd | 0/18 |
| GFQIDEYGIS | VIYADGRRASYAADVK | GSYDSDGLT | 4.47 / nd / nd / nd / nd / nd | 1/18 (2.42) |
| GFDINDYGIS | VIYADGLRTSYSTNFK | GIYAGTFTS | 0.87 / 0.96 / 1.12 / 1.20 / 1.90 / 0.69 | 0/18 |
| GYDLQDYGIS | VIYADGVRAFYHDSVK | GQLAGIFLL | nd / nd / nd / nd / nd / nd | 0/18 |
| GFEIDEYGIS | VIYADGKRTSYSDTVK | GQLGNAFDL | nd / nd / nd / nd / nd / nd | 0/18 |

The last 5 entries again:

CDR-H1,CDR-H2,CDR-H3,log10 Kd (nM) by replicate,signal with controls
GFDINEYGIS,VIYADGQRVYYAEKVK,GFNQTINVV,nd / nd / nd / nd / nd / nd,0/18
GFQIDEYGIS,VIYADGRRASYAADVK,GSYDSDGLT,4.47 / nd / nd / nd / nd / nd,1/18 (2.42)
GFDINDYGIS,VIYADGLRTSYSTNFK,GIYAGTFTS,0.87 / 0.96 / 1.12 / 1.20 / 1.90 / 0.69,0/18
GYDLQDYGIS,VIYADGVRAFYHDSVK,GQLAGIFLL,nd / nd / nd / nd / nd / nd,0/18
GFEIDEYGIS,VIYADGKRTSYSDTVK,GQLGNAFDL,nd / nd / nd / nd / nd / nd,0/18